Chains of the proteins cited; added tags and fusions are not shown. Residues count along the entry.
UniProt P22303, 32-614: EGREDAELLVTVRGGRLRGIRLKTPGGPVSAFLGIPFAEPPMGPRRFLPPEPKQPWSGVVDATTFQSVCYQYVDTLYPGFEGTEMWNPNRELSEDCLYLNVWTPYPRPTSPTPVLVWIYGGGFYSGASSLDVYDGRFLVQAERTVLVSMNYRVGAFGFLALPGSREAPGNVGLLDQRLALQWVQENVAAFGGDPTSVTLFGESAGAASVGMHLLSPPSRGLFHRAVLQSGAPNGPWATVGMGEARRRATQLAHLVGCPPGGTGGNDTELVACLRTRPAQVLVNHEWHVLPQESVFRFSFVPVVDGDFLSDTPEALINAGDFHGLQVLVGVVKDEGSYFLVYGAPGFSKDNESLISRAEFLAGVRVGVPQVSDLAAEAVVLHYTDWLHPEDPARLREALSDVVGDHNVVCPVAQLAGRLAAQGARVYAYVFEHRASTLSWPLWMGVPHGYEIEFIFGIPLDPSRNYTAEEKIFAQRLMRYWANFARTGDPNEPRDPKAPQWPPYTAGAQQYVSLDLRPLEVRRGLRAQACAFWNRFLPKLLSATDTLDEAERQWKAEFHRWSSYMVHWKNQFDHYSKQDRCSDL

In patent publication US5364864A, “1,4-disubstituted piperidines, their preparation and their application in therapy” (priority 1991, dated 1994):

Target: acetylcholinesterase (Homo sapiens, UniProt P22303)
Test: Inhibition of acetylcholinesterase activity (method of Ellman et al.)
Assay type: biochemical

Question: How did the pIC50 turn out when `O=[N+]([O-])C=C(NCCC1CCN(Cc2ccccc2)CC1)Nc1ccccc1` [Compound 4, N-Phenyl-N'-[2-(1-benzyl-4-piperidyl)ethyl]-1,1-diamino-2-nitroethylene] was run?
Answer: The pIC50 was 7.10.

Question: How did the pIC50 turn out when `COc1ccc(NC(=S)NCCC2CCN(Cc3ccccc3)CC2)cc1` [Compound 9] was run?
Answer: The pIC50 was 6.82.

pIC50: −log10 of the molar value.
